Measurements published in PubChem BioAssay (EPA / NIEHS).
Only a part is listed here, and it is no random draw. Active and inactive are the calls of the source. The calls were made as follows: active = hit-call score of the fitted dose curve at least 0.9, where 1 is the maximum; inactive = score below 0.9.

Sequences of proteins named here, by UniProt entry; tags and fusion partners are left off.
UniProt P16581, whole entry: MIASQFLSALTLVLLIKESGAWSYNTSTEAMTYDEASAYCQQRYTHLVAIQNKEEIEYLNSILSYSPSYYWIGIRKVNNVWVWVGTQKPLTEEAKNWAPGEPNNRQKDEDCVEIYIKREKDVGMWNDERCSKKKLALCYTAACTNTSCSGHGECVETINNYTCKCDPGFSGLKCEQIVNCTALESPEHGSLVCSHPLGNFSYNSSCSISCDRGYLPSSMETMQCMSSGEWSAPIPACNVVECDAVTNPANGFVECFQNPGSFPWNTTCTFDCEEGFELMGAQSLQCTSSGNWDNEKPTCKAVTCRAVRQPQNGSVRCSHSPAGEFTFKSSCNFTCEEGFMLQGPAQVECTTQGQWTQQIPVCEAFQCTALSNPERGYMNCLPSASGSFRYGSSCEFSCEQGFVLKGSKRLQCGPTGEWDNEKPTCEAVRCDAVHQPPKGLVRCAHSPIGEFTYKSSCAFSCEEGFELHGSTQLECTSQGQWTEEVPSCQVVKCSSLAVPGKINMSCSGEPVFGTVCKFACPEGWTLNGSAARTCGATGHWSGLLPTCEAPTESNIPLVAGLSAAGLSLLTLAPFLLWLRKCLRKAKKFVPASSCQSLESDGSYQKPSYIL

How the values were obtained:
[1] = read-out: TIMP metallopeptidase inhibitor 2 (TIMP2), TIMP2 (gene 7077); experiment: BSK_KF3CT_TIMP2: BioMAP Diversity Plus: KF3CT Assay for TIMP metallopeptidase inhibitor 2 (TIMP2) Biomarker Activity (AID 2283071); details: actives raise or lower the signal; primary human keratinocytes with fibroblasts
In short: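 Human primary keratinocyte/foreskin fibroblast co-culture dosed with chemical and sampled at 24 h. TIMP-2 levels quantified by ELISA; bidirectional fitting against DMSO negative control as baseline.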

[2] = read-out: Transforming growth factor beta 1 (TGFb1), TGFB1 (gene 7040); experiment: BSK_KF3CT_TGFb1: BioMAP Diversity Plus: KF3CT Assay for Transforming growth factor beta 1 (TGFb1) Biomarker Activity (AID 2283072); details: actives raise or lower the signal; primary human keratinocytes with fibroblasts
In short: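 Human keratinocyte plus foreskin fibroblast primary co-culture, dosed with chemical for 24 h. TGF-b1 quantified by ELISA. Activity fitted bidirectionally against DMSO negative control as baseline.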

[3] = read-out: C-C motif chemokine 2 (Homo sapiens) (UniProt P13500); experiment: BSK_KF3CT_MCP1: BioMAP Diversity Plus: KF3CT Assay for Monocyte Chemoattractant Protein 1 (MCP1/CCL2) Biomarker Activity (AID 2283073); details: actives raise or lower the signal; primary human keratinocytes with fibroblasts
Experimental: BSK_KF3CT is a cell-based, multiplexed-readout assay that uses keratinocytes and foreskin fibroblasts, a human skin primary cell co-culture, with measurements taken at 24 hours after chemical dosing in a 96-well plate.BSK_KF3CT_MCP1 is an assay component measured in the BSK_KF3CT assay. It measures MCP-1 antibody related to regulation of gene expression using ELISA technology.Data from the assay component BSK_KF3CT_MCP1 was analyzed into 1 assay endpoint. This assay endpoint, BSK_KF3CT_MCP1, was analyzed with bidirectional fitting relative to DMSO as the negative control and baseline of activity. […] Furthermore, this assay endpoint can be referred to as a primary readout, because this assay has produced multiple assay endpoints where this one serves a signaling function. […]
(§1) The levels of cell surface (or secreted, indicated by the prefix "s") biomarker endpoints were measured by ELISA. Overt cytotoxicity to cells in confluent adherent cultures (all systems other than the BT system) was assessed by measuring total protein levels using sulforhodamine B (SRB) staining in parallel cultures at the time of biomarker measurements, indicated as SRB endpoints. […] SRB was performed by staining cells with 0.1% SRB after fixation with 10% TCA and reading wells at 560 nm.Viability and proliferation of PBMC (T cells) was quantified by Alamar Blue reduction for the SAg and BT systems. […]

[4] = read-out: Matrix Metallopeptidase 9 (MMP9), MMP9 (gene 4318); experiment: BSK_KF3CT_MMP9: BioMAP Diversity Plus: KF3CT Assay for Matrix Metallopeptidase 9 (MMP9) Biomarker Activity (AID 2283074); details: actives raise or lower the signal; primary human keratinocytes with fibroblasts
In short: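 Human keratinocyte and foreskin fibroblast co-culture exposed to chemicals for 24 h; MMP9 biomarker measured by ELISA, bidirectional fitting relative to DMSO; cytotoxicity tracked by SRB total protein staining in parallel cultures.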

[5] = read-out: urokinase plasminogen activator (uPA), PLAU (gene 5328); experiment: BSK_KF3CT_uPA: BioMAP Diversity Plus: KF3CT Assay for urokinase plasminogen activator (uPA) Biomarker Activity (AID 2283075); details: actives raise or lower the signal; primary human keratinocytes with fibroblasts
In short: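 Primary human keratinocyte/foreskin fibroblast co-culture exposed to chemical; uPA measured by ELISA at 24 h. Bidirectional fit versus DMSO, with parallel SRB total-protein staining for cytotoxicity.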

[6] = read-out: CD40, CD40 (gene 958); experiment: BSK_LPS_CD40: BioMAP Diversity Plus: LPS Assay for CD40 Biomarker Activity (AID 2283076); details: actives raise or lower the signal; primary human HUVEC with PBMC
Experimental: BSK_LPS is a cell-based, multiplexed-readout assay that uses umbilical vein endothelium and peripheral blood mononuclear cells, a human vascular primary cell co-culture, with measurements taken at 24 hours after chemical dosing in a 96-well plate.BSK_LPS_CD40 is an assay component measured in the BSK_LPS assay. It measures CD40 antibody related to regulation of gene expression using ELISA technology.Data from the assay component BSK_LPS_CD40 was analyzed into 1 assay endpoint. This assay endpoint, BSK_LPS_CD40, was analyzed with bidirectional fitting relative to DMSO as the negative control and baseline of activity. […] Furthermore, this assay endpoint can be referred to as a primary readout, because this assay has produced multiple assay endpoints where this one serves a signaling function. […]
as §1

[7] = read-out: E-selectin (Homo sapiens) (UniProt P16581); experiment: BSK_LPS_Eselectin: BioMAP Diversity Plus: LPS Assay for Eselectin Biomarker Activity (AID 2283077); details: actives raise or lower the signal; primary human HUVEC with PBMC
In short: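 Human umbilical vein endothelial cells co-cultured with peripheral blood mononuclear cells under LPS stimulation; E-selectin measured by ELISA 24 h after chemical dosing. Activity fitted bidirectionally against DMSO as negative control and baseline.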

[8] = read-out: Interleukin-8 (IL8), CXCL8 (gene 3576); experiment: BSK_LPS_IL8: BioMAP Diversity Plus: LPS Assay for Interleukin-8 (IL8) Biomarker Activity (AID 2283078); details: actives raise or lower the signal; primary human HUVEC with PBMC
In short: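 Human umbilical vein endothelial cells co-cultured with PBMC were stimulated with LPS; IL-8 levels were measured by ELISA 24 h after chemical dosing. Activity was fitted bidirectionally against DMSO as negative control and baseline.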

[9] = BSK_LPS_SRB: Viability Assessment in the BioMAP Diversity Plus: LPS Assay (AID 2283079); details: primary human HUVEC with PBMC;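 also: total protein by sulforhodamine B absorbance as a cytotoxicity measure; measured one day after compound addition; fitted in both directions against DMSO so loss or gain of signal counts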
In short: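 Human umbilical vein endothelial cells co-cultured with PBMC (LPS system) were dosed for 24 h. Total protein was stained with 0.1% sulforhodamine B after 10% TCA fixation, read at 560 nm, and fitted bidirectionally against DMSO baseline.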

[10] = read-out: Interleukin-1 alpha (IL1a), IL1A (gene 3552); experiment: BSK_LPS_IL1a: BioMAP Diversity Plus: LPS Assay for Interleukin-1 alpha (IL1a) Biomarker Activity (AID 2283080); details: actives raise or lower the signal; primary human HUVEC with PBMC
In short: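 Human umbilical vein endothelial cells co-cultured with peripheral blood mononuclear cells were LPS-stimulated and exposed to test chemicals for 24 h. IL-1 alpha was quantified by ELISA, with bidirectional curve fitting against DMSO as the negative control and baseline.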

Measured: AC50

O=[N+]([O-])c1ccccc1[N+](=O)[O-]
inactive: [1] | [2] | [3] | [4] | [5] | [6] | [7] | [8] | [9]
active: [10] 24.8 µM

CC(C)OP(OC(C)C)OC(C)C
active: [10] 1.61 µM
inactive: [1] | [2] | [3] | [4] | [5] | [6] | [7] | [8] | [9]
